Assay results published in patent publication US20060258739A1, “Dihydrobenzofuran derivatives and uses therof” (Wyeth, priority 2005, published 2006).

Amino acid sequences for entries named in this document (tags omitted). Residues count along the entry.
UniProt P28335, 33-458: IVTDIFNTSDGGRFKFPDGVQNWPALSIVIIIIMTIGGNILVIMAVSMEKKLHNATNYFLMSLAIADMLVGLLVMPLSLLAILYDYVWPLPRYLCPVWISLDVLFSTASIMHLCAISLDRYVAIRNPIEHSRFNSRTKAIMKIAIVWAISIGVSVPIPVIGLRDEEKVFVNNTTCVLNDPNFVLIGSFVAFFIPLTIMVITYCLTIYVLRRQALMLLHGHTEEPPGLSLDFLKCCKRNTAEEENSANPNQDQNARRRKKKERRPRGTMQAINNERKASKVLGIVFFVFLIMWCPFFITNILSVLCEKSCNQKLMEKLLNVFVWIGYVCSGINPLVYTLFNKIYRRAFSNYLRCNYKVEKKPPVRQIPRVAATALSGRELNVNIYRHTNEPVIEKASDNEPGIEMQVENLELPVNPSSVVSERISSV

Legend:
[1] = biological target: human 5-HT2C receptor (Homo sapiens, UniProt P28335); conditions: calcium mobilization, response as % of maximal 5-HT response
[2] = biological target: T1, human 5-hydroxytryptamine-2C (h5-HT2C) receptor (Homo sapiens, UniProt P28335); test: [125I]DOI radioligand binding to membranes of CHO cells expressing the h5-HT2C receptor; conditions: displacement of [125I]DOI, CHO cell membranes, room temperature 60 min; read-out: Ki (95% confidence interval)
T1 construct: expressed in transfected cells; host or cells: CHO (Chinese Hamster Ovary) cells; membrane preparation

1-(2,5-dimethoxy-4-iodophenyl)isopropylamine [DOI]
EC50 [1]: 0.5 nM | Ki [2]: 6.2 nM
